# Membrane permeability of cyclic peptides

Collected by the curators of CycPeptMPDB (Li et al. 2023) from Townsend et al. 2020, doi:10.26434/chemrxiv.13335941.v1.

PAMPA measures passive passage through an artificial lipid membrane.
P is given in units of 10^-6 cm/s (from log10 values with two decimals); larger means faster passage.

| SMILES | PAMPA (10^-6 cm/s) |
|---|---|
| CC(C)C[C@@H]1NC(=O)[C@H](C)NC(=O)[C@H](Cc2ccccc2)NC(=O)[C@@H](CC(C)C)NC(=O)[C@@H]2CCCN2C(=O)CN(Cc2ccccc2)C1=O | 0.47 |
| CCCN1CC(=O)N(C)[C@H](CC(C)C)C(=O)N(C)[C@@H](CC(C)C)C(=O)N2CCC[C@@H]2C(=O)N(Cc2ccccc2)CC(=O)N[C@@H](Cc2ccccc2)C(=O)N2CCC[C@H]2C1=O | 4.2 |
| CC(C)C[C@@H]1NC(=O)CN(Cc2ccccc2)C(=O)[C@H](C)N(C)C(=O)[C@H]2CCCN2C(=O)[C@H](Cc2ccccc2)NC(=O)CN(Cc2ccccc2)C(=O)[C@H]2CCCN2C1=O | 0.89 |
| CCCN1CC(=O)N(C)[C@H](CC(C)C)C(=O)N[C@@H](Cc2ccccc2)CC(=O)N2CCC[C@@H]2C(=O)N(C)[C@H](CC(C)C)C(=O)N[C@@H](Cc2ccccc2)C(=O)N2CCC[C@@H]2C1=O | 5.1 |
| CC(C)C[C@@H]1C(=O)N[C@@H](Cc2ccccc2)C(=O)N2CCC[C@H]2C(=O)N[C@@H](Cc2ccccc2)CC(=O)N[C@H](CC(C)C)C(=O)N[C@@H](Cc2ccccc2)CC(=O)N2CCC[C@H]2C(=O)N1C | 0.3 |
| CC(C)C[C@@H]1NC(=O)[C@@H](C)NC(=O)[C@H](Cc2ccccc2)NC(=O)[C@H](CC(C)C)N(C)C(=O)[C@@H]2CCCN2C(=O)[C@H](CC(C)C)NC1=O | 0.54 |
| CC(C)C[C@@H]1NC(=O)C[C@H](Cc2ccccc2)NC(=O)[C@@H]2CCCN2C(=O)[C@H](Cc2ccccc2)NC(=O)[C@@H](CC(C)C)N(C)C(=O)[C@H]2CCCN2C(=O)[C@@H](CC(C)C)NC1=O | 7.6 |
| CC(C)C[C@@H]1NC(=O)[C@@H]2CCCN2C(=O)CN(Cc2ccccc2)C(=O)[C@@H](CC(C)C)N(C)C(=O)[C@H](C)NC(=O)[C@H]2CCCN2C(=O)[C@H](Cc2ccccc2)NC1=O | 1.6 |
| CC(C)C[C@@H]1NC(=O)[C@H]2CCCN2C(=O)[C@@H](CC(C)C)N(C)C(=O)[C@H](CC(C)C)N(C)C(=O)[C@@H](C)N(C)C(=O)[C@H]2CCCN2C(=O)[C@H](Cc2ccccc2)NC1=O | 0.17 |
| CC(C)C[C@H]1NC(=O)[C@@H](C)NC(=O)[C@@H]2CCCN2C(=O)[C@H](Cc2ccccc2)NC(=O)CN(Cc2ccccc2)C(=O)[C@H]2CCCN2C(=O)[C@H](CC(C)C)N(C)C1=O | 1.6 |
| CC(C)C[C@@H]1NC(=O)[C@@H](C)N(C)C(=O)[C@H](Cc2ccccc2)NC(=O)[C@@H](CC(C)C)N(C)C(=O)[C@H]2CCCN2C(=O)CN(Cc2ccccc2)C1=O | 6.2 |
| CC(C)C[C@@H]1C(=O)N[C@@H](Cc2ccccc2)C(=O)N2CCC[C@H]2C(=O)N(C)[C@@H](C)C(=O)N[C@H](CC(C)C)C(=O)N[C@H](CC(C)C)C(=O)N2CCC[C@H]2C(=O)N1C | 1 |
| CC(C)C[C@H]1C(=O)N2CCC[C@H]2C(=O)N(C)[C@@H](CC(C)C)C(=O)N[C@@H](Cc2ccccc2)C(=O)N2CCC[C@@H]2C(=O)N(C)[C@@H](C)C(=O)N(Cc2ccccc2)CC(=O)N1C | 9.1 |

The 2 lowest values of PAMPA among the entries above:

| SMILES | PAMPA (10^-6 cm/s) |
|---|---|
| CC(C)C[C@@H]1NC(=O)[C@H]2CCCN2C(=O)[C@@H](CC(C)C)N(C)C(=O)[C@H](CC(C)C)N(C)C(=O)[C@@H](C)N(C)C(=O)[C@H]2CCCN2C(=O)[C@H](Cc2ccccc2)NC1=O | 0.17 |
| CC(C)C[C@@H]1C(=O)N[C@@H](Cc2ccccc2)C(=O)N2CCC[C@H]2C(=O)N[C@@H](Cc2ccccc2)CC(=O)N[C@H](CC(C)C)C(=O)N[C@@H](Cc2ccccc2)CC(=O)N2CCC[C@H]2C(=O)N1C | 0.3 |

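The data file gives no further conditions (lipid, pH, time, direction or concentration), and values from different papers need not be comparable. Other peptides of the study may be missing here. Entries at the database's floor value (log10 P of -10) are not listed.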